One compound from patent publication US9833448B2, “Piperidinone carboxamide azaindane CGRP receptor antagonists” (Merck Sharp & Dohme Corp., priority 2010, dated 2017) can be followed below.

The chains behind the UniProt entries cited, without tags or fusion partners. Residues count along the entry.
UniProt O60894, 27-148: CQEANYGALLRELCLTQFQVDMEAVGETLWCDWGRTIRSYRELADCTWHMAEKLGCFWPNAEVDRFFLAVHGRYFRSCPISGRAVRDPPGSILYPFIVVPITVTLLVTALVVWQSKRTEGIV
UniProt Q16602, 23-461: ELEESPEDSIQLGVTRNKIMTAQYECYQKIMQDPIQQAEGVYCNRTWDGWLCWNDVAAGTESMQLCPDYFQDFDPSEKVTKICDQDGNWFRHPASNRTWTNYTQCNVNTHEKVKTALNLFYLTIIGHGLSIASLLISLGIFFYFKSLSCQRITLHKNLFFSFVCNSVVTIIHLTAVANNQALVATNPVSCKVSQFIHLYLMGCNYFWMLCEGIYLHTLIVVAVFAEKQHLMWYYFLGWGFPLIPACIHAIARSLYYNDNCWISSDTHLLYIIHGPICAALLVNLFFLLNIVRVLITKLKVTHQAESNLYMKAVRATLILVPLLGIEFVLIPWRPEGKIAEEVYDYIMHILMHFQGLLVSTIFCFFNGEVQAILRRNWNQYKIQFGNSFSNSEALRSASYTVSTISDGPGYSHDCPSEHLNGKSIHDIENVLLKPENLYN

This experiment has as its target recombinant human CL receptor/RAMP1 (Homo sapiens (Human), UniProt O60894+Q16602). Put plainly: Recombinant receptor binding assay (125I-hCGRP). The settings on record: exemplary compounds of the invention; 10 pM 125I-hCGRP, membranes of HEK 293 cells. The protocol: Human CL receptor (Genbank accession number L76380) was subcloned into the expression vector pIREShyg2 (BD Biosciences Clontech) as a 5′NheI and 3′ PmeI fragment. Human RAMP1 (Genbank accession number AJ001014) was subcloned into the expression vector pIRESpuro2 (BD Biosciences Clontech) as a 5′NheI and 3′NotI fragment. HEK 293 cells (human embryonic kidney cells; ATCC #CRL-1573) were cultured in DMEM with 4.5 g/L glucose, 1 mM sodium pyruvate and 2 mM glutamine supplemented with 10% fetal bovine serum (FBS), 100 units/mL penicillin and 100 µg/mL streptomycin, and maintained at 37° C. and 95% humidity. Cells were subcultured by treatment with 0.25% trypsin with 0.1% EDTA in HBSS. Stable cell line generation was accomplished by co-transfecting 10 μg of DNA with 30 μg Lipofectamine 2000 (Invitrogen) in 75 cm^2 flasks. CL receptor and RAMP1 expression constructs were co-transfected in equal amounts. […]
The cell suspension was disrupted with a laboratory homogenizer and centrifuged at 48,000 g to isolate membranes. […] Scintillation fluid was added and the plates were counted on a Topcount (Packard). Non-specific binding was determined and the data analysis was carried out with the apparent dissociation constant (Ki) determined by using a non-linear least squares fitting the bound CPM data to the equation below: […]

`C[C@@H]1[C@H](c2ccccc2)C[C@H](NC(=O)c2cnc3c(c2)C[C@@]2(C3)C(=O)Nc3ncccc32)C(=O)N1CC1(C(F)(F)F)CC1` [Example 26]: the Ki was determined as 0.093 nM.

In general, Ki refers to a dissociation constant, usually derived from enzyme kinetics or from competition with a known ligand.
